## Measured affinities in a library of Ab-95 light chain variants

The measurements come from Engelhart et al. 2022 (doi:10.1038/s41597-022-01779-4) through the FLAb antibody collection.

The target is the same throughout: PDVDLGDISGINAS, from the HR2 region of SARS-CoV-2 spike.

Ab-95 is the parent antibody, in scFv form: VH, then a (GGGGS)3 linker, then VL. The heavy chain is unchanged in all variants.
VH: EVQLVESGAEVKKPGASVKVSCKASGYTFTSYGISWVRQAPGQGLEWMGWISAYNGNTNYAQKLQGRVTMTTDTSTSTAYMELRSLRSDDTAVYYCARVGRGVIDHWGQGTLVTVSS
VL: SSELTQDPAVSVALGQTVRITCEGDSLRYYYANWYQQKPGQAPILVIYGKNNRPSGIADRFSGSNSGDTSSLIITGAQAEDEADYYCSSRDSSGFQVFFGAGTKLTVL

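Phage display of a naive human antibody library on the peptide gave the parent. The library (AAYL52) carries one to three amino acid substitutions per variant, with no insertions or deletions. The scFvs were displayed on barcoded MATa yeast, the peptide on MATalpha yeast. After mating in shaken culture at 30 °C for 16 h, diploids were selected and their barcode pairs sequenced. Read counts were normalised to the haploid input and turned into Kd by a linear fit to BCL2-family pairs of known affinity, for each replicate. There are three technical replicates.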

Variants are written as CDR1, CDR2 and CDR3 of the light chain (limits as in the source). Parent: EGDSLRYYYAN, GKNNRPS, SSRDSSGFQVF. All variants listed here change S92 of the VL, counted from its first residue. Kd is apparent (estimated from mating counts) and averaged on the log scale over replicates with a signal. Smaller is tighter. An entry "nd" has no value in the source: the pair was not observed among the diploids in any replicate. This suggests poor binding but is not conclusive. Parent in this assay: reference entry 200 nM, copy in this library 180 nM. Empty control strains, which show no peptide, gave a signal in 28% of pairings with library AAYL52; the median was 8.2 µM and 95% of these signals were weaker than 800 nM. No background was subtracted.

For EGDSLRYYYAN, GKTNRPS, SSRDMSGFQVF, the assay gave 38 µM (1 of 3 replicates).
For EGDSLRYYYAN, GKNNRPS, SSRDDSGFPQF, the assay gave 3.9 µM (3 of 3 replicates).
For LGDSLRYYYAN, GKNNRPS, SDRDWSGFQVF, the assay gave 25 µM (1 of 3 replicates).
For EGDSLRYYYAN, EKNNRPH, SSRDISGFQVF, the assay gave 2.4 µM (1 of 3 replicates).
For EGDSLRYYYKN, GKNNRLS, SSRDTSGFQVF, the assay gave 61 µM (1 of 3 replicates).
For EGDSLRYYYAN, GLGNRPS, SSRDQSGFQVF, the assay gave 570 nM (3 of 3 replicates).
For EGDVLRYYYRN, GKNNRPS, SSRDESGFQVF, the assay gave 1.1 µM (1 of 3 replicates).
For EGDSLRHYYAN, GKNNRPS, QSRDMSGFQVF, the assay gave 120 nM (3 of 3 replicates).
For EGDILRYYYAN, GKNNRPS, SSPDTSGFQVF, the assay gave 2.6 µM (1 of 3 replicates).
For EGDSLRYYYWN, GKNNRPS, SSRDASGFQVI, the assay gave 60 µM (1 of 3 replicates).
For EGDSLRYYYAI, GKNNRPS, SSRATSGFQVF, the assay gave 50 µM (1 of 3 replicates).
For EGDSLRYYYAN, GKNNRPS, SSRDCSGFQVF, the assay gave 7.0 µM (3 of 3 replicates).
For EGDSLRYYYAN, GKNNRKS, SSRDIMGFQVF, the assay gave nd (0 of 3 replicates).
For EGDSLRYYYAN, GKFNRPS, SSRDYSGFQVK, the assay gave 10 µM (1 of 3 replicates).
For CGDSLRYYYAN, GKNDRPS, SSRDYSGFQVF, the assay gave 160 nM (3 of 3 replicates).
For ELDSLRYYYAN, RKNNRPS, SSRDVSGFQVF, the assay gave 31 µM (3 of 3 replicates).
For EGDSLRLYYAN, GKNNGPS, SSRDHSGFQVF, the assay gave 21 µM (1 of 3 replicates).
For VGDSLMYYYAN, GKNNRPS, SSRDKSGFQVF, the assay gave 230 nM (3 of 3 replicates).
For QGDSLRYYYAN, GKNNRPS, FSRDKSGFQVF, the assay gave 13 µM (3 of 3 replicates).
For EGDSLRYYYAN, GKNNSPS, SSRDYSGFQVR, the assay gave 410 nM (3 of 3 replicates).
For EGDSLRYYYAN, GKNNRPS, SSQDHSRFQVF, the assay gave 48 µM (1 of 3 replicates).
For EGDSLRYYYAN, GKNNRPS, QSRDLSKFQVF, the assay gave nd (0 of 3 replicates).
For EGDSLRYYYAN, GLNNRPF, SSRDESGFQVF, the assay gave 330 nM (3 of 3 replicates).
For EGDSVRYYYAN, GKNNRPS, SSRDRRGFQVF, the assay gave nd (0 of 3 replicates).
For EGDSLRYYYAN, GKNHRPS, SSRYMSGFQVF, the assay gave nd (0 of 3 replicates).
For ECDSLRYYYAN, GKNNRPS, NSRDHSGFQVF, the assay gave 1.7 µM (3 of 3 replicates).
For EGDSLRYYRAN, GKNNRPS, SSRDHSGFQVF, the assay gave 2.0 µM (1 of 3 replicates).
For EGDSLRYYYQN, GKNNRPQ, SSRDQSGFQVF, the assay gave 26 µM (3 of 3 replicates).
For EADSLRYYMAN, GKNNRPS, SSRDKSGFQVF, the assay gave 400 nM (3 of 3 replicates).
For EGDSLRYYYAN, GKNNRPS, LSRDADGFQVF, the assay gave 11 µM (2 of 3 replicates).
For EGDSLRRYYAN, GKNNRPS, RSRDPSGFQVF, the assay gave 5.9 µM (2 of 3 replicates).
For EGDSLRYYYAN, NKNQRPS, SSRDWSGFQVF, the assay gave 280 nM (3 of 3 replicates).

Excerpt, the first 3 entries:

CDR-L1,CDR-L2,CDR-L3,Kd (apparent),seen in
EGDSLRYYYAN,GKTNRPS,SSRDMSGFQVF,38 µM,1 of 3
EGDSLRYYYAN,GKNNRPS,SSRDDSGFPQF,3.9 µM,3 of 3
LGDSLRYYYAN,GKNNRPS,SDRDWSGFQVF,25 µM,1 of 3